The values that follow come from patent US20090131370A1, “Novel Nucleoside Derivatives” (METABASIS THERAPEUTICS , INC., priority 2004, published 2009).

The assay relates to HCV. The assay is described as follows: Antiviral activity in HCV-infected human liver slice assay. Conditions: HCV RNA in culture media. The class given is cell-based, hepatitis C virus. The protocol: The effect of various compounds on HCV replication in human liver tissue was evaluated as described below.
Liver from a brain-dead HCV antibody-positive human patient was perfused with ice-cold Viaspan (Dupont Pharmaceutical) preservation solution and received on ice in Viaspan.
Precision-cut liver slices of ˜200-250 μm thickness and […] diameter were prepared and cultured in Waymouth's cell culture medium (Gibco, Inc.) that was supplemented with 10% fetal bovine serum and 10 mL/L Fungi-Bact at 37° C., and gassed with carbogen (95% O2, 5% CO2) at 0.75 liters/min. Tissue slices were maintained in culture for 72 h. Cell culture medium containing test compound in solution was changed on a daily basis.
At appropriate times of liver slice incubation, liver slices and medium were collected for analysis of HCV RNA (tissue and medium) and nucleotide levels (NTP). All collected media and tissue slices were maintained in liquid N2 until analysis.
Medium and tissue samples were analyzed for HCV RNA levels according to published procedures (Bonacini et. al., 1999) which utilize an automated, multicycle, polymerase chain reaction (PCR)-based technique. This assay has a lower limit of detection for HCV RNA of 100 viral copies/ml. Frozen liver slices were disrupted by using a combination of ultrasound probe sonication, Branson Sonifier 450 (Branson Ultrasonics, Danbury, Conn.) and homogenization using a Dounce conical pestle in 200 μls of 10% (v/v) perchloric acid (PCA). After a 5 min centrifugation at 2,500×g, the supernatants were neutralized using 3 M KOH/3 M KHCO3 and mixed thoroughly. The neutralized samples were centrifuged at 2,500 g for 5 min and NTP levels were determined by ion exchange phase HPLC (Hewlett Packard 1050) using a Whatman Partisil 5 SAX (5 μm, 4.6×250 mm) column. Samples (50 μL) were injected onto the column in 70% 10 mM ammonium phosphate buffer and 30% 1 M ammonium phosphate buffer, both at pH 3.5 and containing 6% ethanol. Nucleoside triphosphates were eluted from the column using a linear gradient to 80% 1 M ammonium phosphate pH 3.5/6% ethanol buffer, at a flow rate of 1.25 mL/min and detected by UV absorbance (254 nm).

In the case of `C[C@@]12OC(=O)O[C@@H]1[C@@H](COP1(=O)OCC[C@@H](c3ccncc3)O1)O[C@H]2n1cnc2c(N)ncnc21` (stereo partly shown) [Compound 30.1], the “% decrease in viral RNA relative to untreated liver slices” value runs as follows: (0.25 μM) 0%; (2.5 μM) 0%; (25 μM) 94%; (100 μM) 96%.
